Experimental properties from OPERA 2.9

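These are experimental values that the OPERA curators gathered from public databases to train and test their QSAR models. One number stands for a compound and property, with no spread given. How each value was measured is not recorded, so precision varies. A value may pool stereoisomers or salt forms, and the file does not say which form was measured. Some entries may be limits or estimates that an upstream database listed as plain numbers.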

The melting point is given in degrees Celsius.
The boiling point refers to atmospheric pressure (760 mmHg), by the definition of the set.
logP is the log10 of the octanol-water partition coefficient; higher is more lipophilic.
Solubility in water is on a log10 molar scale (set defined at 25 °C).
Vapor pressure is log10 of mmHg; the set covers 15 to 30 °C, mostly 20 to 25 °C.
Henry's law constant (air-water partitioning) is log10 of atm·m3/mol, nominally at 25 °C.
Intrinsic clearance (human, µL/min per 10^6 hepatocytes): higher is faster turnover, and 0 stands for none detected.
"n/a" marks a cell with nothing listed here.

SMILES | name | melting point (°C) | BP (°C) | log Kow | log S (log10 mol/L) | log VP (log10 mmHg) | log Henry constant (log10 atm·m3/mol) | Clint (µL/min/10^6 cells)
CC1(C)COC2(CCC3=C(CC[C@@H]4[C@@H]3CC[C@@]3(C)[C@H]4CC[C@]3(O)C#N)C2)OC1 | n/a | 194.1 | n/a | 4.44 | -4.41 | -8.34 | n/a | n/a
C[C@@H]1C[C@@H](O)CC(C)(C)C1=O | Cyclohexanone, 4-hydroxy-2,2,6-trimethyl-, (4R,6R)- | 49.3 | n/a | 1.1 | n/a | n/a | n/a | n/a
Clc1cc(Cl)c(Oc2ccccc2)cc1Cl | 2,4,5-trichlorodiphenyl ether | 61 | n/a | n/a | -6.58 | n/a | n/a | n/a
NCCC(=O)N[C@@H](Cc1cnc[nH]1)C(=O)O | n/a | n/a | n/a | -3.625 | 0.23 | -6.68 | n/a | n/a
COc1cc(-c2cc(OC)cc(C(C)(C)C)c2O)c(O)c(C(C)(C)C)c1 | 3,3'-Di-tert-butyl-5,5'-dimethoxy[1,1'-biphenyl]-2,2'-diol | n/a | n/a | 6.09 | -6.776 | n/a | n/a | n/a
CCOC(=O)CCN(C(=O)c1ccc(NC)c(N)c1)c1ccccn1 | n/a | n/a | n/a | 1.37 | -2.316 | n/a | n/a | n/a
CC(C)n1c(/C=C/[C@@H](O)C[C@@H](O)CC(=O)OC(C)(C)C)c(-c2ccc(F)cc2)c2ccccc21 (racemic) | n/a | 141.5 | n/a | 4.8 | -6.625 | n/a | n/a | n/a
CCc1nc(C)c[nH]1 | 2-Ethyl-4-methyl-1H-imidazole | n/a | n/a | 1.13 | n/a | -3.543 | n/a | n/a
CC(C)=COC(=O)c1ccccc1C | 3-Methyl-2-butenyl salicylate | n/a | n/a | 4.49 | -4.404 | n/a | n/a | n/a
CN(C)C=C1OC(=O)C(C#N)=C1c1ccccc1 | Difunone | n/a | n/a | n/a | n/a | -5.801 | -10.5 | n/a
CC(=O)CC(=O)Nc1ccccc1Cl | 2'-Chloroacetoacetanilide | n/a | n/a | 1.32 | -2.407 | -5.951 | n/a | n/a
Cc1ncc(C[n+]2csc(CCOP(=O)(O)O)c2C)c(N)n1.[Cl-] | Monophosphothiamine | 135 | n/a | -4.7 | n/a | n/a | n/a | n/a
O=C(CCS)OCCn1c(=O)n(CCOC(=O)CCS)c(=O)n(CCOC(=O)CCS)c1=O | n/a | n/a | n/a | 2.54 | -2.514 | -6.116 | n/a | n/a
C/C=C/C1CCC(C2CCC(CCC)CC2)CC1 (stereo partly drawn) | 4-[(1E)-Prop-1-en-1-yl]-4'-propyl-1,1'-bi(cyclohexane) | 44 | n/a | 6.4 | -6.632 | -4.129 | n/a | n/a
O=C1NCC2(CCN(CCc3ccccc3)CC2)O1 | Fenspiride | 155.4 | n/a | n/a | -2.394 | n/a | n/a | n/a
O=C(OCC1CCC2OC2C1)C1CCC2OC2C1 (stereo not drawn) | ECC | n/a | n/a | 1.34 | -1.26 | -4.824 | n/a | n/a
CCCCCCCCCCCC(=O)OC(C)C(=O)OC(C)C(=O)[O-].[Na+] (stereo not drawn) | Sodium 2-(1-carboxylatoethoxy)-1-methyl-2-oxoethyl laurate | n/a | n/a | 0.2 | n/a | -4.715 | n/a | n/a
Cc1cc(C2(c3ccc(O)c(C)c3)CCCCC2)ccc1O | Phenol, 4,4'-cyclohexylidenebis[2-methyl- | n/a | n/a | 3.1 | -5.372 | n/a | n/a | n/a
CCCCCCCCC(CCCCCC)COc1ccccc1C(N)=O (stereo not drawn) | 2-[(2-Hexyldecyl)oxy]benzamide | 63 | n/a | n/a | -7.78 | n/a | n/a | n/a
Cc1nc2ccc(CN(C)c3ccc(C(=O)N[C@@H](CCC(=O)O)C(=O)O)s3)cc2c(=O)[nH]1 | Raltitrexed | n/a | n/a | -1.2 | -4.404 | n/a | n/a | n/a
Cc1ccccc1C(OCCN(C)C)c1ccccc1 (stereo not drawn) | Orphenadrine | n/a | n/a | n/a | -3.953 | n/a | n/a | 0.723
O=C(O)[C@H](CC(=O)N1C[C@H]2CCCC[C@H]2C1)Cc1ccccc1 | Mitiglinide | n/a | n/a | 2.9 | -3.649 | n/a | n/a | n/a
CC(CO)COC1CC2CCC1(C)C2(C)C (stereo not drawn) | n/a | n/a | n/a | 3.31 | -3.593 | -2.302 | n/a | n/a
CC(C)=CCC/C(C)=C/CC[C@H](C)CC=O | (3S,6E)-3,7,11-Trimethyl-6,10-dodecadienal | n/a | 286.9 | 6.21 | -5.889 | -2.534 | n/a | n/a
CCCCCCCCCCCCCCCC(=O)NCCC[N+](C)(C)C.[Cl-] | n/a | 80 | n/a | n/a | -3.25 | n/a | n/a | n/a
CCC1(C)OC(=O)N(C)C1=O (stereo not drawn) | Paramethadione | 31.5 | n/a | n/a | -0.066 | n/a | n/a | n/a
O=S(=O)(Nc1ccc(O)cc1)c1ccccc1 | Benzenesulfonamide, N-(4-hydroxyphenyl)- | 154 | n/a | n/a | -2.494 | -9.084 | n/a | n/a
CCCCCC=CCC(CC(=O)O)C(=O)O (stereo not drawn) | Butanedioic acid, 2-(2-octen-1-yl)- | 3 | n/a | n/a | -2.404 | -4.921 | n/a | n/a
CCO[Si](CCCCl)(OCC)OCC | (3-Chloropropyl)(triethoxy)silane | n/a | n/a | 3.1 | -3.329 | -0.635 | n/a | n/a
CC(C)c1ccc(Cl)cc1CNC1CC1 | n/a | n/a | n/a | 4.5 | -3.403 | -2.885 | n/a | n/a
CC(C)CCC(C)(O)C#CC(C)(O)CCC(C)C (stereo not drawn) | 2,5,8,11-Tetramethyldodec-6-yne-5,8-diol | n/a | n/a | 4.79 | -3.438 | -3.417 | n/a | n/a
CCCCCC(C)CO (stereo not drawn) | 2-Methylheptan-1-ol | -93 | 193 | 3.05 | -2.528 | -1.426 | n/a | n/a
Cc1c(C)c2c(c(C)c1OC(=O)c1cccnc1)CCC(C)(CCCC(C)CCCC(C)CCCC(C)C)O2 (stereo not drawn) | n/a | 45 | 395 | n/a | n/a | -7.881 | n/a | n/a

5 of these entries, quoted again:

| SMILES | name | melting point (°C) | BP (°C) | log Kow | log S (log10 mol/L) | log VP (log10 mmHg) | log Henry constant (log10 atm·m3/mol) | Clint (µL/min/10^6 cells) |
|---|---|---|---|---|---|---|---|---|
| NCCC(=O)N[C@@H](Cc1cnc[nH]1)C(=O)O | n/a | n/a | n/a | -3.625 | 0.23 | -6.68 | n/a | n/a |
| CCCCCCCCCCCCCCCC(=O)NCCC[N+](C)(C)C.[Cl-] | n/a | 80 | n/a | n/a | -3.25 | n/a | n/a | n/a |
| CCCCCCCCCCCC(=O)OC(C)C(=O)OC(C)C(=O)[O-].[Na+] (stereo not drawn) | Sodium 2-(1-carboxylatoethoxy)-1-methyl-2-oxoethyl laurate | n/a | n/a | 0.2 | n/a | -4.715 | n/a | n/a |
| CCc1nc(C)c[nH]1 | 2-Ethyl-4-methyl-1H-imidazole | n/a | n/a | 1.13 | n/a | -3.543 | n/a | n/a |
| CCCCCC=CCC(CC(=O)O)C(=O)O (stereo not drawn) | Butanedioic acid, 2-(2-octen-1-yl)- | 3 | n/a | n/a | -2.404 | -4.921 | n/a | n/a |

Source: data files of OPERA 2.9 (Mansouri et al.), github.com/kmansouri/OPERA.